Experimental data taken from paper PMC2665022 (Biochemistry, 2009).

Legend:
[1] = target: PutA (proline dehydrogenase domain, PutA86-630) (Escherichia coli, UniProt P09546); details: read-out: Ki for THFA
[2] = target: PutA (proline dehydrogenase domain, PutA86-630) (Escherichia coli, UniProt P09546, Y540A); details: read-out: Ki for THFA
[3] = target: PutA (proline dehydrogenase domain, PutA86-630) (Escherichia coli, UniProt P09546, Y540S)
purified protein = substrate: O=C(O)[C@@H]1CCCN1; test: purified protein; details: FAD active site; 25.0 °C

O=C(O)[C@@H]1CCCO1 [compound 6, L-tetrahydro-2-furoic acid]
Ki [1]: 0.084 ± 0.003 mM
Ki [2]: 7.9 ± 0.5 mM

Cc1cc2nc3c(=O)[nH]c(=O)nc-3n(C[C@H](O)[C@H](O)[C@H](O)COP(=O)(O)OP(=O)(O)OC[C@H]3O[C@@H](n4cnc5c(N)ncnc54)[C@H](O)[C@@H]3O)c2cc1C [FAD]
X-ray crystal structure (1.85 Å, oxidized, with THFA) [3]: with the FAD cofactor bound at the C-terminal ends of the strands of the barrel

B1: PutA (proline dehydrogenase domain, PutA86-630) (Escherichia coli K-12) (protein)
chain: LPQSVSRAAITAAYRRPETEAVSMLLEQARLPQPVAEQAHKLAYQLADKLRNQKNASGRAGMVQGLLQEFSLSSQEGVALMCLAEALLRIPDKATRDALIRDKISNGNWQSHIGRSPSLFVNAATWGLLFTGKLVSTHNEASLSRSLNRIIGKSGEPLIRKGVDMAMRLMGEQFVTGETIAEALANARKLEEKGFRYSYDMLGEAALTAADAQAYMVSYQQAIHAIGKASNGRGIYEGPGISIKLSALHPRYSRAQYDRVMEELYPRLKSLTLLARQYDIGINIDAEESDRLEISLDLLEKLCFEPELAGWNGIGFVIQAYQKRCPLVIDYLIDLATRSRRRLMIRLVKGAYWDSEIKRAQMDGLEGYPVYTRKVYTDVSYLACAKKLLAVPNLIYPQFATHNAHTLAAIYQLAGQNYYPGQYEFQCLHGMGEPLYEQVTGKVADGKLNRPCRIYAPVGTHETLLAYLVRRLLENGANTSFVNRIADTSLPLDELVADPVTAVEKLAQQEGQTGLPHPKIPLPRDLYGHGRDNSAGLDLANEHRL
Km (purified protein): 59 mM
kcat (purified protein): 29 s⁻¹
kcat/Km (purified protein): 492 M⁻¹ s⁻¹
